Source: patent EP4837910A1, “ISOXAZOLINE COMPOUND AND PREPARATION METHOD THEREFOR, HERBICIDAL COMPOSITION, AND USE” (dated 2026)

Assays:
Settings in all cases: Dosage 240 g a.i./ha, after 4 weeks in greenhouse, fresh weight control rate
[1] = tested on: Monocotyledonous and dicotyledonous weed; test: Pre-emergence test on weeds (greenhouse, sprayed immediately after sowing)
Triticum aestivum = test: Pre-emergence test, crop damage (greenhouse, sprayed immediately after sowing)
Zea mays = test: as above

Row | Compound | activity level of plant damage (growth control rate), Descurainia sophia [1] | activity level of plant damage (growth control rate), Digitaria sanguinalis [1] | activity level of plant damage (growth control rate), Lolium multiflorum [1] | activity level of plant damage (growth control rate), Setaria viridis [1] | activity level of plant damage (growth control rate), Triticum aestivum (Triticum aestivum) | activity level of plant damage (growth control rate), Zea mays (Zea mays)
1 | CC[C@]1(C(=O)N[C@@H](C)C(=O)N(C)OC)CC(c2cc(C)cc(F)c2)=NO1 | 5 (Level 5: growth control rate greater than or equal to 50% and less than 70%) | 9 | 9 | 9 | 1 (Level 1: growth control rate less than 10%) | 0
2 | C=C[C@]1(C(=O)N[C@H](C)C(=O)NOC)CC(c2cc(F)cc(C(F)(F)F)c2)=NO1 | 5 (Level 5: growth control rate greater than or equal to 50% and less than 70%) | – | – | – | 0 | 0
3 | C=C[C@]1(C(=O)N[C@@H](C)C(=O)NOC)CC(c2cc(C)cc(Cl)c2)=NO1 | – | – | 5 (Level 5: growth control rate greater than or equal to 50% and less than 70%) | – | 2 (Level 2: growth control rate greater than or equal to 10% and less than 20%) | 0
4 | CC[C@]1(C(=O)N[C@@H](C)C(=O)N(C)OC)CC(c2cc(F)cc(C(F)(F)F)c2)=NO1 | 9 | 5 (Level 5: growth control rate greater than or equal to 50% and less than 70%) | 6 (Level 6: growth control rate greater than or equal to 70% and less than 80%) | 9 | 2 (Level 2: growth control rate greater than or equal to 10% and less than 20%) | 0
5 | CC[C@]1(C(=O)N[C@@H](C)C(=O)NOC)CC(c2cc(F)cc(OC)c2)=NO1 | 9 | 7 (Level 7: growth control rate greater than or equal to 80% and less than 90%) | – | – | 1 (Level 1: growth control rate less than 10%) | 0
6 | CON(C)C(=O)[C@H](C)NC(=O)[C@@]1(CF)CC(c2cc(F)cc(F)c2)=NO1 | 6 (Level 6: growth control rate greater than or equal to 70% and less than 80%) | – | – | – | 0 | 0
7 | C=CC1(C(=O)N[C@@H](C)C(=O)N(C)OC)CC(c2cc(C)cc(C)c2)=NO1 (some centres unmarked) | – | 9 | – | 9 | 0 | 0
8 | CC[C@]1(C(=O)N[C@@H](C)C(=O)N(C)OC)CC(c2cc(Cl)cc(OC(F)(F)F)c2)=NO1 | – | 8 (Level 8: growth control rate greater than or equal to 90% and less than 100%) | 8 (Level 8: growth control rate greater than or equal to 90% and less than 100%) | 9 | 1 (Level 1: growth control rate less than 10%) | 0
9 | CC[C@@]1(C(=O)N[C@@H](C)C(=O)N(C)OC)CC(c2cc(C)cc(F)c2)=NO1 | 9 | – | – | – | 0 | 0
10 | C=C[C@@]1(C(=O)N[C@H](C)C(=O)NOC)CC(c2cc(F)cc(Cl)c2)=NO1 | 9 | – | – | – | 0 | 0
11 | CON(C)C(=O)[C@@H](C)NC(=O)C1(C)CC(c2cc(Cl)nc(Cl)c2)=NO1 (some centres unmarked) | 5 (Level 5: growth control rate greater than or equal to 50% and less than 70%) | – | – | – | 0 | 1 (Level 1: growth control rate less than 10%)
12 | C=CC1(C(=O)N[C@@H](C)C(=O)N(C)OC)CC(c2cccc(C(F)(F)F)c2)=NO1 (some centres unmarked) | 6 (Level 6: growth control rate greater than or equal to 70% and less than 80%) | – | 9 | 6 (Level 6: growth control rate greater than or equal to 70% and less than 80%) | 1 (Level 1: growth control rate less than 10%) | 1 (Level 1: growth control rate less than 10%)
13 | C=C[C@@]1(C(=O)N[C@@H](CCSC)C(=O)N(C)OC)CC(c2cc(F)cc(F)c2)=NO1 | 5 (Level 5: growth control rate greater than or equal to 50% and less than 70%) | – | – | – | 1 (Level 1: growth control rate less than 10%) | 0
14 | C=C[C@]1(C(=O)N[C@@H](C)C(=O)N(C)OCC(=C)C)CC(c2cc(F)cc(F)c2)=NO1 | – | 8 (Level 8: growth control rate greater than or equal to 90% and less than 100%) | – | 8 (Level 8: growth control rate greater than or equal to 90% and less than 100%) | 2 (Level 2: growth control rate greater than or equal to 10% and less than 20%) | 0
15 | C=C[C@]1(C(=O)N[C@H](C(=O)N(C)OC)C(C)(C)C)CC(c2cc(F)cc(F)c2)=NO1 | – | – | 5 (Level 5: growth control rate greater than or equal to 50% and less than 70%) | – | 0 | 0
16 | CC[C@@]1(C(=O)N[C@@H](C)C(=O)NOC)CC(c2cc(F)cc(OC(F)(F)F)c2)=NO1 | 9 | – | – | – | 2 (Level 2: growth control rate greater than or equal to 10% and less than 20%) | 1 (Level 1: growth control rate less than 10%)
17 | C=C[C@]1(C(=O)N[C@@H](C)C(=O)NOC)CC(c2cc(F)cc(OC)c2)=NO1 | 5 (Level 5: growth control rate greater than or equal to 50% and less than 70%) | – | – | – | 1 (Level 1: growth control rate less than 10%) | 0
18 | C=C[C@]1(C(=O)N[C@@H](C)C(=O)N(C)OC)CC(c2cc(F)cc(OC)c2)=NO1 | 7 (Level 7: growth control rate greater than or equal to 80% and less than 90%) | 8 (Level 8: growth control rate greater than or equal to 90% and less than 100%) | – | 8 (Level 8: growth control rate greater than or equal to 90% and less than 100%) | 2 (Level 2: growth control rate greater than or equal to 10% and less than 20%) | 2 (Level 2: growth control rate greater than or equal to 10% and less than 20%)
19 | C=C[C@]1(C(=O)N[C@@H](COC)C(=O)N(C)OC)CC(c2cc(F)cc(F)c2)=NO1 | – | 5 (Level 5: growth control rate greater than or equal to 50% and less than 70%) | – | – | 0 | 2 (Level 2: growth control rate greater than or equal to 10% and less than 20%)
20 | C=C(C)[C@]1(C(=O)N[C@@H](C)C(=O)N(C)OC)CC(c2cc(C(F)(F)F)cc(C(F)(F)F)c2)=NO1 | – | 9 | 9 | 9 | 2 (Level 2: growth control rate greater than or equal to 10% and less than 20%) | 2 (Level 2: growth control rate greater than or equal to 10% and less than 20%)
21 | CON(C)C(=O)[C@H](C)NC(=O)C1(C)CC(c2ccc(F)c(Cl)c2)=NO1 (some centres unmarked) | – | 5 (Level 5: growth control rate greater than or equal to 50% and less than 70%) | – | – | 0 | 0
22 | C=C[C@]1(C(=O)N[C@@H](Cc2c[nH]cn2)C(=O)N(C)OC)CC(c2cc(F)cc(F)c2)=NO1 | 6 (Level 6: growth control rate greater than or equal to 70% and less than 80%) | – | – | – | 0 | 0
23 | C=C[C@@]1(C(=O)N[C@@H](C)C(=O)NOCC)CC(c2cc(Br)cc(C(F)(F)F)c2)=NO1 | 9 | – | 6 (Level 6: growth control rate greater than or equal to 70% and less than 80%) | – | 1 (Level 1: growth control rate less than 10%) | 1 (Level 1: growth control rate less than 10%)
24 | CC[C@]1(C(=O)N[C@@H](C)C(=O)N(C)OC)CC(c2cc(F)cc(OC(F)(F)F)c2)=NO1 | – | 9 | 9 | 9 | 2 (Level 2: growth control rate greater than or equal to 10% and less than 20%) | 0
